{
  "source": "patent US20260166170A1",
  "about": "“ANTIBODY DRUG CONJUGATE COMPRISING NMT INHIBITOR AND ITS USE” (MyricX Pharma Limited, priority 2022, published 2026)",
  "test_system": "BT474 breast cancer cells",
  "experiment": "Orthotopic breast cancer xenograft model",
  "type": "in vivo, NOD/SCID mice",
  "details": "trastuzumab or ADC Example 1 2.5 or 5 mg/kg; NMT inhibitor 1 2 mg/kg",
  "procedure": "NOD/SCID mice were implanted with estrogen pellets (17β-estradiol, 60 day release, 0.36 mg) subcutaneously in the right flank one day before the tumour inoculation. On day-8 each mouse was then inoculated in the right mammary fat pad with 1×10^7 viable BT474 breast cancer cells resuspended in 0.2 mL of Phosphate Buffered Saline mixed with matrigel (1:1). Mice were assigned to treatment groups when tumour volumes averaged 149.78 mm^3 on study day 0. […] The study was terminated on Study Day 35. […] Each group was comprised of 10 mice. Tumour volumes in mice were measured three times per week and tumour volume was calculated using the formula 0.5 (L×W^2). The mean tumour volumes (+SEM) for each study group at each measurement are shown in FIG. 1 and FIG. 2 plotted as Last Observation Carried Forward. Statistical analyses were carried out on tumour readings for Groups 1, 2, 3, 4 and 5 up to Study Day 23 (after this point >50% of the animals within one of the study groups were lost; Group 2) using two-way ANOVA, or a Mixed-Effects model was fitted when values were missing from groups (PRISM GraphPad Software Inc.). Statistical analysis of Group 6 was conducted until day 13 (at this point the study was terminated due to the significant loss of observed body weight). […]\nDuring the study, body weights were measured three times weekly for all animals. […]",
  "data": [
    {"substance": "trastuzumab: humanized anti-HER2 monoclonal antibody", "values": [
      {"measurement": "body weights of mice compared to vehicle control", "value": "did not differ significantly from the vehicle control"}
    ]}
  ]
}
